According to patent US20200179290A1, “AMORPHOUS POWDER COMPRISING AN ANGIOTENSIN RECEPTOR BLOCKER AND A NEUTRAL ENDOPEPTIDASE INHIBITOR” (Quimica Sintetica, S.A., priority 2015, published 2020):

Test: pH of the solution in water/acetone mixture
Type: physicochemical
Conditions: water/acetone mixture of WO '546 Example 1
Experimental: Sodium hydroxide can be preferably added in the form of an aqueous solution if the previous step was performed in a water miscible solvent alone; alternatively, sodium hydroxide can be added in solid (powder) form. Depending on the way of addition of NaOH, the resulting mixture may be, in turn, either a solution or a wet solid-containing mixture; for this reason, the result of NaOH addition is referred to in this description and in the claims generally as “mass”, which is intended to also include the case that the resulting mixture be a solution. If the preceding steps, and in particular the addition of sodium hydroxide, have been carried out correctly, the resulting mixture should be characterized by the same pH value achieved after dispersing LCZ-696 in the solvent or solvents mixture used to perform steps g) and h). Said standard value may be easily determined by the person skilled in the art by means of a preliminary investigation comprising the dispersion of LCZ-696 into the selected solvent or mixture of solvents and measuring the pH.
Sacubitril (19.0 g, 46.2 mmol) and Valsartan (19.5 g, 44.8 mmol) were dissolved in acetone (1900 mL) under magnetic stirring at 25° C. A solution of sodium hydroxide (5.3 g, 132.2 mmol) in water (333 mL) was added to the former solution maintaining the resulting mixture under stirring up to obtaining a clear solution (pH=9.44). […]

## trisodium [3-((1S,3R)-1-biphenyl-4-yl-methyl-3-ethoxycarbonyl-1-butylcarbamoyl)propionate-(S)-3′-methyl-2′-(pentanoyl{2″-(tetrazol-5-ylate)biphenyl-4′-yl-methyl}amino)butyrate]-hemi-pentahydrate [LCZ-696]
  pH of the solution: 9.62
